Assay results reported in ChEMBL document CHEMBL5291721, “A preclinical secondary pharmacology resource illuminates target-adverse drug reaction associations of marketed drugs” (Nat Commun, 2023).

Sequences of proteins named here, by UniProt entry; tags and fusion partners are left off.
UniProt P31645, whole entry: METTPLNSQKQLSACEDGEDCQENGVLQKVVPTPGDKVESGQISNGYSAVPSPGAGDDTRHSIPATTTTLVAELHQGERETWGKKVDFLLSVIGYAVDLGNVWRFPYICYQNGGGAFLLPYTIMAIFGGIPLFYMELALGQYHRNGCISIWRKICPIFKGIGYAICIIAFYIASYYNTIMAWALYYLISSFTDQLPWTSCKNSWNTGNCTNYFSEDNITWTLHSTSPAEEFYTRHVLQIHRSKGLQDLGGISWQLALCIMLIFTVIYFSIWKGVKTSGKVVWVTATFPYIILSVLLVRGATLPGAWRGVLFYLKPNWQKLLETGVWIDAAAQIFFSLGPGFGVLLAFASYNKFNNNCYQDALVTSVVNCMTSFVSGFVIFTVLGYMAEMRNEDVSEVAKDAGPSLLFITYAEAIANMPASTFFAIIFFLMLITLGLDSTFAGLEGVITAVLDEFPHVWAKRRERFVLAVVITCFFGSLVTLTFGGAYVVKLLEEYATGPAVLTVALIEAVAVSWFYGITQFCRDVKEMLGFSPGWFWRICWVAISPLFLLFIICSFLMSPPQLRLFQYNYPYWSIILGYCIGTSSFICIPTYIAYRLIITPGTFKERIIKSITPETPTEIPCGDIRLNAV
UniProt Q01959, whole entry: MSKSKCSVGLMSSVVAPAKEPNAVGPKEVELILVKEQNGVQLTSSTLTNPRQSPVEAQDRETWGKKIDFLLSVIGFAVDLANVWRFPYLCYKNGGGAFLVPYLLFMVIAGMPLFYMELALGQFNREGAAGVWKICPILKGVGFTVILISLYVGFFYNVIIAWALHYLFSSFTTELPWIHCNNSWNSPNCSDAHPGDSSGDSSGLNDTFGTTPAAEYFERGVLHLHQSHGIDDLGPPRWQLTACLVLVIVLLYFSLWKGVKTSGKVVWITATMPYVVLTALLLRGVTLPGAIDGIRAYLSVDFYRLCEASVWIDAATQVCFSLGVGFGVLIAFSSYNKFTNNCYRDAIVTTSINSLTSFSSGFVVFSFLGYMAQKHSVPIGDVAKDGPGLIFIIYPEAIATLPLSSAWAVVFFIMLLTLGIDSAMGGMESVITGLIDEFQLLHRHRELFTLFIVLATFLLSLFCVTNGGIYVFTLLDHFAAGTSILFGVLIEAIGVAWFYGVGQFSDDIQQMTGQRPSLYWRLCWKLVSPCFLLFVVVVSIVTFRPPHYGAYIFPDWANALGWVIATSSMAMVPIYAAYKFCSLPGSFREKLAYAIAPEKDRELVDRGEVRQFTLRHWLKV
UniProt P23975, whole entry: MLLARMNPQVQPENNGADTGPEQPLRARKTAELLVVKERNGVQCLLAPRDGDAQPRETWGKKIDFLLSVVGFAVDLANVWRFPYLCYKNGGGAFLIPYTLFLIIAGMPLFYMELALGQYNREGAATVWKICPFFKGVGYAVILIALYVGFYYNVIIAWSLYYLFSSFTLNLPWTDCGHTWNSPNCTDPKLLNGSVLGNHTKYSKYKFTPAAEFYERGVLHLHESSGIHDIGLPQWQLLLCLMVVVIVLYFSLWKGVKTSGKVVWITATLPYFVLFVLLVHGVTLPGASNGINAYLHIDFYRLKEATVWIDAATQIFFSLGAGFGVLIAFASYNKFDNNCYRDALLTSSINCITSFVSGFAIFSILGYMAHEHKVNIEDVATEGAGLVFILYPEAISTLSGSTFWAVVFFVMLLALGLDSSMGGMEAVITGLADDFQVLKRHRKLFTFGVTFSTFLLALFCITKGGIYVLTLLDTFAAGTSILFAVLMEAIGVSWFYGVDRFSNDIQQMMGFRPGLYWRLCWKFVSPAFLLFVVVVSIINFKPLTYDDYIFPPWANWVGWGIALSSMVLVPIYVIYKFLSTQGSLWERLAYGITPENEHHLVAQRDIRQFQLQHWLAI
UniProt P08588, whole entry: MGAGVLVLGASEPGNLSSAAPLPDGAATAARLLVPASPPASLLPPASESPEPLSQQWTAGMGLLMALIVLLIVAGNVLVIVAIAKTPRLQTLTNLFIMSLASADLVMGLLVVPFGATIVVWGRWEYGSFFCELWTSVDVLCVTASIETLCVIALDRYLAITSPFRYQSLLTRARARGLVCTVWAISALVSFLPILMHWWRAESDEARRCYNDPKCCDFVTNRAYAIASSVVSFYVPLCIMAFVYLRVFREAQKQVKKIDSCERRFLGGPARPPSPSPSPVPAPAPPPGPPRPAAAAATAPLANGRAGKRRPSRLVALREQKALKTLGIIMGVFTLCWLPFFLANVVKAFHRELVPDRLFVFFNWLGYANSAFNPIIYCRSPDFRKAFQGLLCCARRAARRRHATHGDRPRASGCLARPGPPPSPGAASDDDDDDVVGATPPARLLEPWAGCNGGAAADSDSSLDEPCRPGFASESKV
UniProt P07550, whole entry: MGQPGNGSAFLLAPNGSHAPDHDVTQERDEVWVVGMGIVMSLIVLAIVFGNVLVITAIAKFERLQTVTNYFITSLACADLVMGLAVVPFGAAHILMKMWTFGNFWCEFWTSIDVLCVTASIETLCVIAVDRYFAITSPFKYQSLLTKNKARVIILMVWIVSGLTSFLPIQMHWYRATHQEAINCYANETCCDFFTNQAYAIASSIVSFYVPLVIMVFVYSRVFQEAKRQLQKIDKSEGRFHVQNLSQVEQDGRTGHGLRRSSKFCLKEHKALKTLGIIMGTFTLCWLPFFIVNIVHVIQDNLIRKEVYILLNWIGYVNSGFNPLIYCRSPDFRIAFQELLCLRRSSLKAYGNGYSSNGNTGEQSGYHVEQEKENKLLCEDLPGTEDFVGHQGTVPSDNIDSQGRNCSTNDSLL

Key:
[1] = target: Sodium-dependent serotonin transporter (Homo sapiens, UniProt P31645)
[2] = target: Sodium-dependent dopamine transporter (Homo sapiens, UniProt Q01959)
[3] = target: Sodium-dependent noradrenaline transporter (Homo sapiens, UniProt P23975)
[4] = target: Beta-1 adrenergic receptor (Homo sapiens, UniProt P08588); type: functional
[5] = target: Beta-2 adrenergic receptor (Homo sapiens, UniProt P07550); type: functional, cell-based
Also: assay procedure not described here.

SMILES: CN(C)CC(c1ccc(O)cc1)C1(O)CCCCC1 (stereo not given) [DESVENLAFAXINE]
AC50 [1]: 0.0448 µM
AC50 [2]: 26.5 µM
AC50 [3]: 12.1 µM

AC50 [4]: 3.9 µM
SMILES: CC(C)NCC(O)c1ccc(NS(C)(=O)=O)cc1 (stereo not given) [SOTALOL]

AC50 [5]: 0.0058 µM
SMILES: OCc1cc([C@@H](O)CNCCCCCCOCCOCc2c(Cl)cccc2Cl)ccc1O [VILANTEROL]

One block for each compound: values may come before it.
